Data taken from paper PMC6272605, “Development and Validation of a Docking-Based Virtual Screening Platform for the Identification of New Lactate Dehydrogenase Inhibitors” (Molecules, 2015).

Molecular target: T1, purified human lactate dehydrogenase isoform 5 (hLDH5) (Homo sapiens, UniProt P00338)
T1 construct: purchased Lee Biosolution, Inc., St. Louis, MO, USA
Assay: hLDH5 inhibition assay (pyruvate→lactate, NADH fluorescence)
Assay type: biochemical
Details: 200 μM pyruvate, 40 μM NADH, phosphate buffer pH 7.4, 15 min incubation
Protocol: LDH assays: The LDH inhibition properties of the selected compounds were evaluated against purified human lactate dehydrogenase isoform 5 (Lee Biosolution, Inc., St. Louis, MO, USA). The “forward” direction (pyruvate→lactate) of the lactate dehydrogenase reaction was conducted, and the kinetic parameters were measured by fluorescence (emission wavelength at 460 nm, excitation wavelength at 340 nm) to monitor the amount of consumed NADH. Assays were carried out in wells containing 200 μL of a reagent solution dissolved in 100 mM phosphate buffer (pH = 7.4). For the IC50 calculations of the compounds, seven different concentrations (in duplicate for each concentration) of the isolated compounds were used to produce the concentration-response curve. All of the compounds were tested in the presence of 200 μM pyruvate and 40 μM NADH. Any background fluorescence likelihood of the tested samples, or NADH fluorescence quenching, was subtracted. In addition to the sample test wells, maximum and minimum controls were also included in each plate. After 15 min of incubation, the final measurements were carried out by using a Victor X3 Microplates Reader (PerkinElmer®). IC50 values were produced using GraphPad Prism software.

IC50: 97.7 ± 11.2 µM
SMILES: NC(=O)C(=O)O [oxamic acid]
